Measurements from patent US9302996B2, “Continuous arycyclic compound” (MITSUBISHI TANABE PHARMA CORPORATION, priority 2010, dated 2016).

Tested on: C57BL/6J mice
Test: Antifeeding activity (high fat diet intake up to 4 hours)
Assay type: in vivo
Conditions: Mus musculus, male C57BL/6J mice, 5 mg/kg oral, food ingested up to 4 hours, read-out: Antifeeding rate (5 mg/kg)

How did the inhibition in vivo at 5 mg/kg turn out when `CC(C)(COc1ccc(-c2ccc(-c3ncc(C(F)(F)F)[nH]3)cn2)cc1)C(=O)O` [Example 1-3), 2,2-dimethyl-3-(4-{5-[5-(trifluoromethyl)-1H-imidazol-2-yl]pyridin-2-yl}phenoxy)propanoic acid] was run?
The inhibition in vivo at 5 mg/kg was 77%.
